Source: patent US6858018B1
Only a part of the results on these compounds is given; other tests are left out.

Test: in vitro iontophoretic delivery through excised porcine skin in flow-through cells
Conditions: 500 uA

For remifentanil hydrochloride, which Flux (Exp #14, 20 mg/ml in 10 mM acetic acid, 2 mg, 1.00 hrs) is on record?
The Flux was 0.00 μg/min/cm^2.

What about the Flux (Exp #14, 20 mg/ml in 10 mM acetic acid, 2 mg, 2.00 hrs) of the same substance?
The Flux was 0.00 μg/min/cm^2.

What about the Flux (Exp #14, 20 mg/ml in 10 mM acetic acid, 2 mg, 3.00 hrs) of the same substance?
The Flux was 0.00 μg/min/cm^2.

And the Flux (Exp #14, 20 mg/ml in 10 mM acetic acid, 2 mg, 4.00 hrs)?
Its Flux is 0.01 μg/min/cm^2.

What about the Flux (Exp #14, 20 mg/ml in 10 mM acetic acid, 2 mg, 5.00 hrs) of the same substance?
The Flux was 0.02 μg/min/cm^2.

What about the Flux (Exp #14, 20 mg/ml in 10 mM acetic acid, 2 mg, 6.00 hrs) of the same substance?
The Flux was 0.02 μg/min/cm^2.

And the Flux (Exp #14, 20 mg/ml in 10 mM acetic acid, 2 mg, 7.00 hrs)?
The Flux was 0.03 μg/min/cm^2.

And the Flux (Exp #14, 20 mg/ml in 10 mM acetic acid, 2 mg, 8.00 hrs)?
The Flux was 0.03 μg/min/cm^2.

What about the Flux (Exp #14, 20 mg/ml in 10 mM acetic acid, 2 mg, 9.00 hrs) of the same substance?
Its Flux is 0.02 μg/min/cm^2.

What about the Flux (Exp #14, 20 mg/ml in 10 mM acetic acid, 2 mg, 10.00 hrs) of the same substance?
The Flux was 0.02 μg/min/cm^2.

And the Flux (Exp #14, 20 mg/ml in 10 mM acetic acid, 2 mg, 11.00 hrs)?
The Flux was 0.02 μg/min/cm^2.

What about the Flux (Exp #14, 20 mg/ml in 10 mM acetic acid, 2 mg, 12.00 hrs) of the same substance?
Its Flux is 0.02 μg/min/cm^2.

What about the Flux (Exp #14, 20 mg/ml in 10 mM acetic acid, 2 mg, 13.00 hrs) of the same substance?
The Flux was 0.03 μg/min/cm^2.

What about the Flux (Exp #14, 20 mg/ml in 10 mM acetic acid, 2 mg, 14.00 hrs) of the same substance?
Its Flux is 0.03 μg/min/cm^2.

And the Flux (Exp #14, 20 mg/ml in 10 mM acetic acid, 2 mg, 15.00 hrs)?
The Flux was 0.03 μg/min/cm^2.

And the Flux (Exp #14, 20 mg/ml in 10 mM acetic acid, 2 mg, 16.00 hrs)?
Its Flux is 0.04 μg/min/cm^2.

What about the Flux (Exp #14, 20 mg/ml in 10 mM acetic acid, 2 mg, 17.00 hrs) of the same substance?
The Flux was 0.05 μg/min/cm^2.

And the Flux (Exp #14, 20 mg/ml in 10 mM acetic acid, 2 mg, 18.00 hrs)?
The Flux was 0.05 μg/min/cm^2.

What about the Flux (Exp #14, 20 mg/ml in 10 mM acetic acid, 2 mg, 19.00 hrs) of the same substance?
Its Flux is 0.06 μg/min/cm^2.

What about the Flux (Exp #14, 20 mg/ml in 10 mM acetic acid, 2 mg, 20.00 hrs) of the same substance?
Its Flux is 0.07 μg/min/cm^2.

And the Flux (Exp #14, 20 mg/ml in 10 mM acetic acid, 2 mg, 21.00 hrs)?
The Flux was 0.07 μg/min/cm^2.

What about the Flux (Exp #14, 20 mg/ml in 10 mM acetic acid, 2 mg, 22.00 hrs) of the same substance?
The Flux was 0.08 μg/min/cm^2.

What about the Flux (Exp #14, 20 mg/ml in 10 mM acetic acid, 2 mg, 23.00 hrs) of the same substance?
Its Flux is 0.09 μg/min/cm^2.

What about the Flux (Exp #14, 20 mg/ml in 10 mM acetic acid, 2 mg, 24.00 hrs) of the same substance?
The Flux was 0.10 μg/min/cm^2.

What about the Flux (Exp #15, 2.5 mg/ml in 10 mM acetic acid, PVA gel, 0.375 mg, 0.00 hrs) of the same substance?
The Flux was 0.00 μg/min/cm^2.

What about the Flux (Exp #15, 2.5 mg/ml in 10 mM acetic acid, PVA gel, 0.375 mg, 1.00 hrs) of the same substance?
The Flux was 0.00 μg/min/cm^2.

What about the Flux (Exp #15, 2.5 mg/ml in 10 mM acetic acid, PVA gel, 0.375 mg, 2.00 hrs) of the same substance?
The Flux was 0.00 μg/min/cm^2.

What about the Flux (Exp #15, 2.5 mg/ml in 10 mM acetic acid, PVA gel, 0.375 mg, 3.00 hrs) of the same substance?
Its Flux is 0.01 μg/min/cm^2.

And the Flux (Exp #15, 2.5 mg/ml in 10 mM acetic acid, PVA gel, 0.375 mg, 4.00 hrs)?
Its Flux is 0.02 μg/min/cm^2.

What about the Flux (Exp #15, 2.5 mg/ml in 10 mM acetic acid, PVA gel, 0.375 mg, 5.00 hrs) of the same substance?
The Flux was 0.03 μg/min/cm^2.

And the Flux (Exp #15, 2.5 mg/ml in 10 mM acetic acid, PVA gel, 0.375 mg, 6.00 hrs)?
Its Flux is 0.04 μg/min/cm^2.

And the Flux (Exp #15, 2.5 mg/ml in 10 mM acetic acid, PVA gel, 0.375 mg, 7.00 hrs)?
Its Flux is 0.05 μg/min/cm^2.

And the Flux (Exp #15, 2.5 mg/ml in 10 mM acetic acid, PVA gel, 0.375 mg, 8.00 hrs)?
The Flux was 0.06 μg/min/cm^2.

And the Flux (Exp #15, 2.5 mg/ml in 10 mM acetic acid, PVA gel, 0.375 mg, 9.00 hrs)?
Its Flux is 0.07 μg/min/cm^2.

What about the Flux (Exp #15, 2.5 mg/ml in 10 mM acetic acid, PVA gel, 0.375 mg, 10.00 hrs) of the same substance?
Its Flux is 0.07 μg/min/cm^2.

What about the Flux (Exp #15, 2.5 mg/ml in 10 mM acetic acid, PVA gel, 0.375 mg, 11.00 hrs) of the same substance?
The Flux was 0.09 μg/min/cm^2.

What about the Flux (Exp #15, 2.5 mg/ml in 10 mM acetic acid, PVA gel, 0.375 mg, 12.00 hrs) of the same substance?
Its Flux is 0.10 μg/min/cm^2.

What about the Flux (Exp #15, 2.5 mg/ml in 10 mM acetic acid, PVA gel, 0.375 mg, 13.00 hrs) of the same substance?
Its Flux is 0.11 μg/min/cm^2.

And the Flux (Exp #15, 2.5 mg/ml in 10 mM acetic acid, PVA gel, 0.375 mg, 14.00 hrs)?
Its Flux is 0.10 μg/min/cm^2.

What about the Flux (Exp #15, 2.5 mg/ml in 10 mM acetic acid, PVA gel, 0.375 mg, 15.00 hrs) of the same substance?
The Flux was 0.10 μg/min/cm^2.

And the Flux (Exp #15, 2.5 mg/ml in 10 mM acetic acid, PVA gel, 0.375 mg, 16.00 hrs)?
The Flux was 0.10 μg/min/cm^2.

And the Flux (Exp #15, 2.5 mg/ml in 10 mM acetic acid, PVA gel, 0.375 mg, 17.00 hrs)?
The Flux was 0.09 μg/min/cm^2.

What about the Flux (Exp #15, 2.5 mg/ml in 10 mM acetic acid, PVA gel, 0.375 mg, 18.00 hrs) of the same substance?
The Flux was 0.08 μg/min/cm^2.

What about the Flux (Exp #15, 2.5 mg/ml in 10 mM acetic acid, PVA gel, 0.375 mg, 19.00 hrs) of the same substance?
The Flux was 0.07 μg/min/cm^2.

What about the Flux (Exp #15, 2.5 mg/ml in 10 mM acetic acid, PVA gel, 0.375 mg, 20.00 hrs) of the same substance?
Its Flux is 0.07 μg/min/cm^2.

What about the Flux (Exp #15, 2.5 mg/ml in 10 mM acetic acid, PVA gel, 0.375 mg, 21.00 hrs) of the same substance?
Its Flux is 0.07 μg/min/cm^2.

And the Flux (Exp #15, 2.5 mg/ml in 10 mM acetic acid, PVA gel, 0.375 mg, 22.00 hrs)?
The Flux was 0.06 μg/min/cm^2.

And the Flux (Exp #15, 2.5 mg/ml in 10 mM acetic acid, PVA gel, 0.375 mg, 23.00 hrs)?
The Flux was 0.06 μg/min/cm^2.

And the Flux (Exp #15, 2.5 mg/ml in 10 mM acetic acid, PVA gel, 0.375 mg, 24.00 hrs)?
The Flux was 0.06 μg/min/cm^2.

What about the Flux (Exp #15, 2.5 mg/ml in 10 mM acetic acid, PVA gel, 0.375 mg, −1.00 hrs) of the same substance?
The Flux was 0.00 μg/min/cm^2.

And the Flux (Exp #16, 10 mg/ml in 10 mM acetic acid, PVA gel, 1.5 mg, 0.00 hrs)?
Its Flux is 0.00 μg/min/cm^2.

What about the Flux (Exp #16, 10 mg/ml in 10 mM acetic acid, PVA gel, 1.5 mg, 1.00 hrs) of the same substance?
The Flux was 0.00 μg/min/cm^2.

And the Flux (Exp #16, 10 mg/ml in 10 mM acetic acid, PVA gel, 1.5 mg, 2.00 hrs)?
The Flux was 0.00 μg/min/cm^2.

And the Flux (Exp #16, 10 mg/ml in 10 mM acetic acid, PVA gel, 1.5 mg, 3.00 hrs)?
Its Flux is 0.01 μg/min/cm^2.

What about the Flux (Exp #16, 10 mg/ml in 10 mM acetic acid, PVA gel, 1.5 mg, 4.00 hrs) of the same substance?
Its Flux is 0.02 μg/min/cm^2.

And the Flux (Exp #16, 10 mg/ml in 10 mM acetic acid, PVA gel, 1.5 mg, 5.00 hrs)?
The Flux was 0.03 μg/min/cm^2.

And the Flux (Exp #16, 10 mg/ml in 10 mM acetic acid, PVA gel, 1.5 mg, 6.00 hrs)?
The Flux was 0.03 μg/min/cm^2.

And the Flux (Exp #16, 10 mg/ml in 10 mM acetic acid, PVA gel, 1.5 mg, 7.00 hrs)?
Its Flux is 0.04 μg/min/cm^2.

And the Flux (Exp #16, 10 mg/ml in 10 mM acetic acid, PVA gel, 1.5 mg, 8.00 hrs)?
Its Flux is 0.04 μg/min/cm^2.

And the Flux (Exp #16, 10 mg/ml in 10 mM acetic acid, PVA gel, 1.5 mg, 9.00 hrs)?
The Flux was 0.04 μg/min/cm^2.

And the Flux (Exp #16, 10 mg/ml in 10 mM acetic acid, PVA gel, 1.5 mg, 10.00 hrs)?
The Flux was 0.05 μg/min/cm^2.

What about the Flux (Exp #16, 10 mg/ml in 10 mM acetic acid, PVA gel, 1.5 mg, 11.00 hrs) of the same substance?
The Flux was 0.06 μg/min/cm^2.

What about the Flux (Exp #16, 10 mg/ml in 10 mM acetic acid, PVA gel, 1.5 mg, 12.00 hrs) of the same substance?
Its Flux is 0.06 μg/min/cm^2.

And the Flux (Exp #16, 10 mg/ml in 10 mM acetic acid, PVA gel, 1.5 mg, 13.00 hrs)?
The Flux was 0.08 μg/min/cm^2.

What about the Flux (Exp #16, 10 mg/ml in 10 mM acetic acid, PVA gel, 1.5 mg, 14.00 hrs) of the same substance?
Its Flux is 0.08 μg/min/cm^2.

What about the Flux (Exp #16, 10 mg/ml in 10 mM acetic acid, PVA gel, 1.5 mg, 15.00 hrs) of the same substance?
The Flux was 0.08 μg/min/cm^2.

And the Flux (Exp #16, 10 mg/ml in 10 mM acetic acid, PVA gel, 1.5 mg, 16.00 hrs)?
The Flux was 0.10 μg/min/cm^2.

And the Flux (Exp #16, 10 mg/ml in 10 mM acetic acid, PVA gel, 1.5 mg, 17.00 hrs)?
The Flux was 0.10 μg/min/cm^2.

And the Flux (Exp #16, 10 mg/ml in 10 mM acetic acid, PVA gel, 1.5 mg, 18.00 hrs)?
Its Flux is 0.11 μg/min/cm^2.

What about the Flux (Exp #16, 10 mg/ml in 10 mM acetic acid, PVA gel, 1.5 mg, 19.00 hrs) of the same substance?
The Flux was 0.11 μg/min/cm^2.

What about the Flux (Exp #16, 10 mg/ml in 10 mM acetic acid, PVA gel, 1.5 mg, 20.00 hrs) of the same substance?
The Flux was 0.12 μg/min/cm^2.

What about the Flux (Exp #16, 10 mg/ml in 10 mM acetic acid, PVA gel, 1.5 mg, 21.00 hrs) of the same substance?
The Flux was 0.11 μg/min/cm^2.

And the Flux (Exp #16, 10 mg/ml in 10 mM acetic acid, PVA gel, 1.5 mg, 22.00 hrs)?
Its Flux is 0.12 μg/min/cm^2.

What about the Flux (Exp #16, 10 mg/ml in 10 mM acetic acid, PVA gel, 1.5 mg, 23.00 hrs) of the same substance?
Its Flux is 0.12 μg/min/cm^2.

And the Flux (Exp #16, 10 mg/ml in 10 mM acetic acid, PVA gel, 1.5 mg, 24.00 hrs)?
The Flux was 0.12 μg/min/cm^2.

And the Flux (Exp #16, 10 mg/ml in 10 mM acetic acid, PVA gel, 1.5 mg, −1.00 hrs)?
The Flux was 0.00 μg/min/cm^2.
